Source: patent US5264565A, “Nucleic acid encoding the D2 /Ml chimeric receptor” (Affymax Technologies, N.V., priority 1991, dated 1993)

Amino acid sequences for entries named in this document (tags omitted). Residues count along the entry.
UniProt P14416, 1-414 isoform P14416-2: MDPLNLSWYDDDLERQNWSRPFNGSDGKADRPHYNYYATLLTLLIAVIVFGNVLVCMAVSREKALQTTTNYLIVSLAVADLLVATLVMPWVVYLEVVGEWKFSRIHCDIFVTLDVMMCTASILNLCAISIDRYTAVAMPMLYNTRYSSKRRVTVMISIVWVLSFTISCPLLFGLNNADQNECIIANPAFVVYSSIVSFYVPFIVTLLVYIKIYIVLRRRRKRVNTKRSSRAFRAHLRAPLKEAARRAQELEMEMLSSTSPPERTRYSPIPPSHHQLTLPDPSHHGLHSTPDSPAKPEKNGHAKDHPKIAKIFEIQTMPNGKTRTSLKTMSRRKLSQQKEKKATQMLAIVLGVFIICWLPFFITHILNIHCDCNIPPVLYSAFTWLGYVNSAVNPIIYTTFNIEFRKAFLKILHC

Target: D2(414) receptor (Homo sapiens, UniProt P14416)
Assay: Competition binding assay with [3H]-spiperone, D2(414) receptor
Design: expressed in transfected cells
Conditions: 0.5 nM [3H]-spiperone, anti-log of mean log Ki, three experiments, Cheng-Prusoff

## CCCN(CCc1ccccc1)C1CCc2c(O)cccc2C1 (stereo not shown) [N-0434]
  Ki: 21 nM
